{"source": "PubChem BioAssay AID624291", "about": "(National Center for Advancing Translational Sciences (NCATS), 2012)", "note": "The entries are a selection whose mix differs from that of the whole data set. Results filed as inconclusive are left out. Activity calls are given as the source filed them. Calls come from the whole dose curve; as a rule, active = well fitted activation curve with a large enough effect; inconclusive = small, poorly fitted or top-dose-only effect; inactive = no such curve, though single readings can be large or run the other way.", "data": [{"assay": "qHTS for Activators of Integrin-Mediated Alleviation for Muscular Dystrophy;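 note: 100% = response of the positive control SU9516; nearly all actives have a fitted effect of over 60% in size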", "details": "alpha7betagal myoblasts, beta-gal FDG fluorescence, 48 h; at 38.3 µM (top of the series)", "values": [{"smiles": "COc1cc(C2NCCC3(OCCO3)C2(C)C)cc(OC)c1OC.O=[N+]([O-])c1cc([N+](=O)[O-])c(O)c([N+](=O)[O-])c1", "note": "(stereo unspecified)", "activation": "inactive: 2.37%"}]}]}
